The target of the assay is T1, PI3K-β (Homo sapiens, UniProt P42338).
T1 construct: purchased Bioscience, USA #79802
Nature of the assay: Kinase inhibitory assay (ELISA kit). It counts as biochemical. Particulars: average of three independent replicates; read-out: IC50 ± SD PI3K-β. The method, then:
EGFR (catalog #40321), CDK2 (catalog #79599), AKT (catalog #78038), PI3K-α (catalog #40639), β (catalog #79802), and δ (catalog #40628) kinase inhibitions were conducted using an ELISA kit in accordance with the manufacturer instructions from Bioscience, USA. To assess the inhibitory potency of compound 5 against the kinase activity, kinase inhibitory tests were carried out. The following calculation was used to compute the proportion that chemicals inhibited autophosphorylation: […]. Using the GraphPad prism7 program, the IC50 was calculated using the curves of percentage inhibition of five concentrations of each chemical.

Amino acid sequences for entries named in this document (tags omitted). A change or cut given only in a name is not applied to a line headed by its entry.
UniProt P42338: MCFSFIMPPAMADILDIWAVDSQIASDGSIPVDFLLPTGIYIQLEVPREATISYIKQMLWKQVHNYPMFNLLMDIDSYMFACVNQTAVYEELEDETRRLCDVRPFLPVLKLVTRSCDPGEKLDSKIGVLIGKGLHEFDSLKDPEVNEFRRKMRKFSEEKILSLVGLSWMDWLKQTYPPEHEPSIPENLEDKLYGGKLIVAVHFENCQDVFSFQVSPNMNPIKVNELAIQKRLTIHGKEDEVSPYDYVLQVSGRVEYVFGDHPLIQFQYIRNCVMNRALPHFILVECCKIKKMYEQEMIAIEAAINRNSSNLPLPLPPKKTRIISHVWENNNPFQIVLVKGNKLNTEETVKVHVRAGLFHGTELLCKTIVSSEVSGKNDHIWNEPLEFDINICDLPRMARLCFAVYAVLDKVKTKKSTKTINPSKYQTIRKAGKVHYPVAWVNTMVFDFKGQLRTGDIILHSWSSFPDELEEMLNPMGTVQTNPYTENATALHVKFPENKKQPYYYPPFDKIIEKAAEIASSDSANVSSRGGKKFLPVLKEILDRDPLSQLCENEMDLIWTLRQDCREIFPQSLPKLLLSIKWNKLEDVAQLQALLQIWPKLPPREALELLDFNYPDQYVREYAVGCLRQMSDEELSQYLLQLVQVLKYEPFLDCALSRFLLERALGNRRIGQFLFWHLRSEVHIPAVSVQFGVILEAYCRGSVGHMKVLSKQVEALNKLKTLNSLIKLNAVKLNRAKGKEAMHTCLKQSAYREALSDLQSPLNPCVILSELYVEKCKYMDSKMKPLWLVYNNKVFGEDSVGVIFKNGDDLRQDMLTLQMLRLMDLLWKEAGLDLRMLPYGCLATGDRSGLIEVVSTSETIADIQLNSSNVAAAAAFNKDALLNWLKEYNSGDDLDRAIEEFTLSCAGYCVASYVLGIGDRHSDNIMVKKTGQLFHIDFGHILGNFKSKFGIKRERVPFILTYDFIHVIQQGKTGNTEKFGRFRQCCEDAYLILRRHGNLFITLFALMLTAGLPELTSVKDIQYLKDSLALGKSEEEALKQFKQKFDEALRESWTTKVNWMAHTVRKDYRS

As for `O=c1cc(N2CCOCC2)oc2c(-c3ccccc3)cccc12` [LY294002, reference compound], the IC50 is 440 ± 20 nM.
